Measured values reported in patent US20190209472A1, “FORMULATIONS FOR DERMAL DELIVERY OF POLYMER CONJUGATES OF INDOLOCARBAZOLE COMPOUNDS WITH REDUCED EXPOSURE” (Sienna Biopharmaceuticals, Inc., priority 2017, published 2019).
Like-named read-outs stand apart in the source and are kept apart here.

What was measured:
[1] = Phase 1b maximal use study: plasma pharmacokinetics of SNA-120; assay type: in vivo, human; conditions: for Cmax: read-out: Cmax of the 1 subject above 2.5 ng/mL
Experimental: This is a multicenter, open-label, Phase 1b study designed to evaluate the PK with maximal use of 0.5% w/w SNA-120 ointment (see Table 1), as measured by circulating plasma levels of SNA-120 in men and women aged ≥18 years who have at least moderate (e.g., moderate to severe) pruritus associated with at least moderate (e.g., moderate to severe) psoriasis vulgaris (PV) covering at least 20% body surface area (BSA). SNA-120 was evaluated as a topical, non-steroidal ointment to treat itch (pruritus) associated with psoriasis. SNA-120 was designed to achieve high local drug concentration in the target tissue while minimizing systemic exposure for patients. SNA-120 directly targets the peripheral itch pathway in the psoriatic plaque.
Approximately 30 eligible subjects will receive 0.5% w/w SNA-120 ointment (2 mg/cm^2) proportional to approximately 35 mg active drug at each application for a subject with at least 20% BSA affected, administered twice daily over 4 weeks to the indicated areas in the Treatment Area. The “Treatment Area” is defined as the BSA (including the face, scalp, intertriginous, and genital areas) exclusive of the mucosa, palms, and soles. The “Affected Areas” to be treated within the Treatment Area shall include: 1) all psoriasis (e.g., plaques) present in the Treatment Area at Baseline; 2) any new or recurrent areas of psoriasis that may develop during the study; and 3) the original plaque area, even in the event that the psoriasis (erythema, induration, scale) resolves and the lesions are no longer clearly visible (aside from hyper/hypo pigmentation). Subjects should continue to apply study drug to current active plaques, resolved/resolving plaques (residual hyper/hypopigmentation), or newly appearing plaques for the full 4 weeks of treatment, always covering a minimum of 20% BSA.
Serial blood draws for PK analysis will be obtained approximately the same time of day on Study Days 1 and 29. On those days, blood draws will be collected after each nominal ECG extraction time point. Predose blood samples on Days 1, 8, 15, and 29 should be taken within 1 hour prior to treatment administration start time. Administration may be performed by the study staff so that the subject can remain at rest.
Pharmacokinetics—Blood: Serial blood draws for PK analysis will be obtained approximately the same time of day for Study Days 1 and 29. The predose blood samples on Days 1, 8, 15, and 29 should be taken within 1 h prior to treatment administration start time. On Days 1 and 29, blood draws will be collected after each nominal ECG extraction time point; the actual times of collection will be recorded in the eCRF. Administration may be performed by the study staff so that the subject can remain at rest. Single PK sample blood draws with occur on Days 8 and 15 and should be within 1 hour prior to treatment administration start time.
For all subjects, blood sampling will be performed under controlled conditions to determine the PK profile of SNA-120 from 0 to 12 hours postdose (after the end of the SNA-120 application). Blood samples will be collected at Days 1 and 29 for PK determination of SNA-120 plasma level at time=predose, and 0.5, 0.75, 1, 2, 4, 8, and 12 hours after the end of the SNA-120 application. The predose and 0.5, 0.75, and 1-hour blood samples for PK determination should be collected within 5 minutes after SNA-120 administration. The 2, 4, and 8-hour PK blood samples should be collected within 15 minutes of the nominal collection time and the 12-hour PK blood sample should be collected within 30 minutes of the nominal collection time.

[2] = Earlier systemic and topical toxicological studies and clinical experience (incl. cream formulation)

## (9S, 10R, 12R)-10-(3′-mPEG2000-1′,3′-oxazolidine-2′,4′-dione)-2,3,9,10,11,12-hexahydro-9-methyl-1-oxo-9,12-epoxy-1H-diindolo[1,2,3-fg:3′,2′,1′-k,l]pyrrolo[3,4-i][1,6] benzodiazocine] [CT327]
[1]; Day 1
  Cmax of the 1 subject above 2.5 ng/mL: 5.04 ng/mL
  Subjects with low (less than 2.5 ng/mL) detectable levels of SNA-120 in the plasma: 30.0 % of subjects
  Cmax: 2.05 nM
[1]; Day 1 (N = 30)
  % of subjects with peak plasma SNA-120 <2.50 ng/mL: 30.0%
  % of subjects with peak plasma SNA-120 below quantitation limit: 66.7%
  % of subjects with peak plasma SNA-120 ≥2.50 ng/mL: 3.3%
  number of subjects (n) with peak plasma SNA-120 <2.50 ng/mL: 9
  number of subjects (n) with peak plasma SNA-120 below quantitation limit: 20
  number of subjects (n) with peak plasma SNA-120 ≥2.50 ng/mL: 1
[1]; Day 1 (N = 30), subjects Below Quantitation Limit (BQL; 0.500 ng/mL plasma), BID topical 0.5% ointment
  Peak Plasma SNA-120 Concentrations: <0.500 ng/mL
[1]; Day 1 (N = 30), subjects with detectable peak <2.50 ng/mL (approximately 1 nM)
  Peak Plasma SNA-120 Concentrations: 0.500 to 1.51 ng/mL
[1]; Day 1 (N = 30), subjects with peak ≥2.50 ng/mL
  Peak Plasma SNA-120 Concentrations: 5.04 ng/mL
[1]; Day 1, 10 out of 30 subjects
  Subjects with detectable levels of SNA-120 in the plasma: 33.3%
[1]; Day 1, 0.5% w/w ointment twice daily, maximal use
  Subjects with no detectable levels of SNA-120 in the plasma: 66.7 % of subjects
[1]; Day 29
  Cmax of the 1 subject above 2.5 ng/mL: 4.64 ng/mL
  Subjects with low (less than 2.5 ng/mL) detectable levels of SNA-120 in the plasma: 28.6 % of subjects
  Subjects with no detectable levels of SNA-120 in the plasma: 67.9 % of subjects
  Cmax: 1.89 nM
[1]; Day 29 (N = 28)
  % of subjects with peak plasma SNA-120 <2.50 ng/mL: 28.6%
  % of subjects with peak plasma SNA-120 below quantitation limit: 67.9%
  % of subjects with peak plasma SNA-120 ≥2.50 ng/mL: 3.6%
  number of subjects (n) with peak plasma SNA-120 <2.50 ng/mL: 8
  number of subjects (n) with peak plasma SNA-120 below quantitation limit: 19
  number of subjects (n) with peak plasma SNA-120 ≥2.50 ng/mL: 1
[1]; Day 29 (N = 28), subjects Below Quantitation Limit (BQL; 0.500 ng/mL plasma), BID topical 0.5% ointment
  Peak Plasma SNA-120 Concentrations: <0.500 ng/mL
[1]; Day 29 (N = 28), subjects with detectable peak <2.50 ng/mL (approximately 1 nM)
  Peak Plasma SNA-120 Concentrations: 0.583 to 0.902 ng/mL
[1]; Day 29 (N = 28), subjects with peak ≥2.50 ng/mL
  Peak Plasma SNA-120 Concentrations: 4.64 ng/mL
[1]; Day 29, 9 out of 28 subjects
  Subjects with detectable levels of SNA-120 in the plasma: 32.1%
[1]; of 489 samples
  Post-baseline blood PK samples with detectable levels of SNA-120 (>0.500 ng/mL): 13.3%
  Post-baseline blood PK samples with detectable levels of SNA-120 (>0.500 ng/mL), number: 65
[1]; out of 30
  Maximum number of subjects with a detectable level of SNA-120 at any post-baseline PK sampling timepoint: 6
[1]; repeated BID topical application
  Accumulation of SNA-120 in the plasma: no accumulation
[1]; twice daily topical application under maximal use conditions
  Systemic exposure (in words): minimal to no systemic exposure
[2]; in vivo
  Systemic absorption: poorly systemically absorbed
[2]; systemic and topical toxicological studies and clinical experience
  Safety and tolerability: safe and well tolerated
